Here are results for one substance from patent publication US20070299013.

This data set concerns the target factor V^2K2F, quadruple mutant, recombinant human factor V with the mutations D695→K, Y696→F, D697→K, and Y698→F (UniProt P12259).

For human thrombin, the “cofactor activity in prothrombinase assay after incubation of the procofactor with thrombin (10 nM, 15 min, 37 C); wild type ~1800 mOD/min” value is “≦20 mOD/min”.
